Measured values: ChEMBL document CHEMBL1687944, “Purification and inhibition studies with anions and sulfonamides of an α-carbonic anhydrase from the Antarctic seal Leptonychotes weddellii” (Bioorg Med Chem, 2011)

Sequences of proteins named here, by UniProt entry; tags and fusion partners are left off. A change or cut given only in a name is not applied to a line headed by its entry.
UniProt P00915: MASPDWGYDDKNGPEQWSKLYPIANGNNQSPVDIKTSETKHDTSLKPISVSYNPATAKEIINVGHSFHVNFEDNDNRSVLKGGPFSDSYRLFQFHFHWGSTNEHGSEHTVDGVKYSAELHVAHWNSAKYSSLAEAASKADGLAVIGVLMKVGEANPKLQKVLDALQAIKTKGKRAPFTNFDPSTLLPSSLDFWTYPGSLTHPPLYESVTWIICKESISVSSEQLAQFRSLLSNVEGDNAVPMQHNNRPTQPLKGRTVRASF

Target: Carbonic anhydrase 1 (Homo sapiens, UniProt P00915)

`[I-].[Na+]` [SODIUM IODIDE] showed a Ki of 300 µM.
